Reference: article PMC6598686 (Molecular cell, 2019)

How the values were obtained:
Experiment in all cases: pull-down
His-tagged human NAP1 = biological target: T1, His-tagged human NAP1 (human, UniProt P55209 1-391)
T1 sequence (looked up): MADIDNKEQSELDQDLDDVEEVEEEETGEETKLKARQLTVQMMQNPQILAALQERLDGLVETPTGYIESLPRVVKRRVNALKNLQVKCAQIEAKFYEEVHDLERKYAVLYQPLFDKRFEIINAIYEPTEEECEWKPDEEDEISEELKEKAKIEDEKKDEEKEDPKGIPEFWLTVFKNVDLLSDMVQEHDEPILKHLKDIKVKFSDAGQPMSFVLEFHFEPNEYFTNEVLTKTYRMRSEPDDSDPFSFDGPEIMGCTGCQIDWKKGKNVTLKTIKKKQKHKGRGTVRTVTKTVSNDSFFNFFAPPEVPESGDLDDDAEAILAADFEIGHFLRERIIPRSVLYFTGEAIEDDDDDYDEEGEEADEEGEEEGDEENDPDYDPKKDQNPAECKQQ

His-tagged human TAF-1β = His-tagged human TAF-1β (human, UniProt Q01105-2)
His-tagged NAP1(1-312) = biological target: T2, His-tagged NAP1(1-312) (human, UniProt P55209 1-312)
T2 sequence (looked up): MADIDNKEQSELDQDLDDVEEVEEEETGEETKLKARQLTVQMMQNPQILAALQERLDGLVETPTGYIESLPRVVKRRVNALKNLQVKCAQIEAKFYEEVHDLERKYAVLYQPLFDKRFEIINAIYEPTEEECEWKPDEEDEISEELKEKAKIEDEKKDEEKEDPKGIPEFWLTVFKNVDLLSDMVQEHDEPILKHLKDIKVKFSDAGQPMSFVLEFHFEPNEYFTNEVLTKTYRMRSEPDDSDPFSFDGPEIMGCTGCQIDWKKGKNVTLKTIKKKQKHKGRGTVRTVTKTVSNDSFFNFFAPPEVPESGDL

- binding result (His-tagged human NAP1): binds
- binding result (His-tagged human TAF-1β): binds
- binding result (His-tagged NAP1(1-312)): binds
B1: human linker histone H1.4 (natural protein)
chain: not shown
